Test results reported in US8076485B2, “Methylphenidate derivatives and uses of them” (priority 2005, dated 2011).

Test system: IL-8
Assay: IL-8 release by TNFα-stimulated HUVECs (ELISA)
Type: cell-based, human
Settings: 10 ng/ml TNFα 18 hours, 10 μM, TNFα + water 35572 ± 967.74
Procedure: Passage 4 HUVECs, human source lot number 8710 (obtained from ATCC), were put into the wells of a 24-well tissue culture plate at 5,000 cells/well in EGM-2 medium and cultured for 72 hours at 37° C. and 5% CO2. […] After incubation for 1 hour at 37° C. and 5% CO2, TNFα (Pierce) was added to give a final concentration of 10 ng/ml, and the cells were incubated for an additional 18 hours at 37° C. and 5% CO2. After this incubation, the supernatants were collected, and the amount of IL-8 in the supernatants determined by ELISA as described in Example 4.

## C[C@@H]1C[C@H]2[C@@H]3CCC4=CC(=O)C=C[C@]4(C)[C@@]3(F)[C@@H](O)C[C@]2(C)[C@@]1(O)C(=O)CO [dexamethasone, reference compound]
  Mean IL-8: 35952 ± 2197.14 pg/mL
